SMILES strings stand for the structures.

The target of this experiment is T1, Phosphatidylcholine:ceramide cholinephosphotransferase 2 (Homo sapiens) (UniProt Q8NHU3).
T1 sequence (whole entry): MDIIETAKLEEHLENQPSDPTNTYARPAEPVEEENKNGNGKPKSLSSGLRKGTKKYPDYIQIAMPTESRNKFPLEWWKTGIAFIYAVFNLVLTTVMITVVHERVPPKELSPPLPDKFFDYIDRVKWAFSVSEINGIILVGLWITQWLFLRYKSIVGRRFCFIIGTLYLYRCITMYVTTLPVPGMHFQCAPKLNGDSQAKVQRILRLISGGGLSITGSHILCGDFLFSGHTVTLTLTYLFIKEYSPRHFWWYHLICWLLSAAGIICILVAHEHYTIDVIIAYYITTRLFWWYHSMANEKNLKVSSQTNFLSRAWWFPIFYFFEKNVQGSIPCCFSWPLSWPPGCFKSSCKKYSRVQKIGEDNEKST
The experiment can be described thus: Inhibition of human SMS2 expressed in HEK293T cells at 100 uM using C2-ceramide as substrate preincubated for 60 mins followed by substrate addition measured after 30 mins by RapidFire/mass spectrometry assay relative to control. The experiment is classed as cell-based.

A word on the inhibition: it is the change of the read-out against control, counted positive when it falls. A high value points to a response far below the control. The compound `S=C(S)OC1CC2CC1C1CCCC21` (stereo unspecified) displayed an inhibition below 50%.

These data come from ChEMBL document CHEMBL4138093, “Discovery and characterization of selective human sphingomyelin synthase 2 inhibitors” (Eur J Med Chem, 2017).
